By UniProt entry, the sequences of proteins in these tests, tags left out.
UniProt P21728, whole entry: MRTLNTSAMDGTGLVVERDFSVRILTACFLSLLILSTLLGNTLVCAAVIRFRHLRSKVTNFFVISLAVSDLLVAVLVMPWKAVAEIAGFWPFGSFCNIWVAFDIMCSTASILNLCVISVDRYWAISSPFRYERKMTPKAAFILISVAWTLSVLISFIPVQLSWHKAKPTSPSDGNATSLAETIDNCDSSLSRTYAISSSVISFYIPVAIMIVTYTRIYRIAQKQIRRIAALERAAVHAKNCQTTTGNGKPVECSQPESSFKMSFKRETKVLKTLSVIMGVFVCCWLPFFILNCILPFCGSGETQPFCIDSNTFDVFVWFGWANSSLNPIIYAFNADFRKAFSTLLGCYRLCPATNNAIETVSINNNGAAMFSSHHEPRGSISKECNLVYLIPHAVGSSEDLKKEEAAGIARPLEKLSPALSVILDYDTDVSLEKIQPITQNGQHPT

In ChEMBL document CHEMBL4257582, “Discovery and Lead Optimization of Atropisomer D1 Agonists with Reduced Desensitization” (J Med Chem, 2018):

Target: D(1A) dopamine receptor (Homo sapiens, UniProt P21728)
Assay: Intrinsic agonist activity at human dopamine D1 receptor expressed in HEK293T cells assessed as induction of cAMP levels at […] after 30 mins by HTRF assay relative to dopamine
Type: functional, cell-based
In short: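 HEK293 cells overexpressing hD1R, no exogenous dopamine. cAMP response converted to nM cAMP with a standard curve, then normalized to the dopamine control. Geometric mean, N ≥ 3 unless otherwise specified.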

For `Cc1cc(Oc2nccc3occc23)ccc1-c1c(C)cnn1C(C)(C)C`, the Emax was 18%.
